Laboratory results taken from ChEMBL document CHEMBL4715690, “The indole alkaloid meleagrin, from the olive tree endophytic fungus Penicillium chrysogenum, as a novel lead for the control of c-Met-dependent breast cancer proliferation, migration and invasion” (Bioorg Med Chem, 2016).

Tests used:
MDA-MB-231 = test: Antimigratory activity against human MDA-MB-231 cells assessed as inhibition of HGF-induced cell migration incubated for 24 hrs by Giemsa-staining based wound healing assay; format: functional
Homo sapiens = organism: Homo sapiens; test: Selectivity index, ratio of IC50 for recombinant human His-tagged c-MET expressed in baculovirus expression system to IC50 for recombinant human His-tagged c-MET M1250T mutant expressed in baculovirus expression system

C=CC(C)(C)[C@@]12C=C(O)C(=O)N3/C(=C/c4cnc[nH]4)C(=O)N[C@]31N(OC)c1ccccc12
inhibition (MDA-MB-231): Dose-dependent effect
Ratio IC50 (Homo sapiens): 2
